Apparent affinities of Ab-14 variants for a coronavirus HR2 peptide

The target is the same throughout: PDVDLGDISGINAS, from the HR2 region of SARS-CoV-2 spike.

Parent: Ab-14, a human scFv built as VH, the linker GGGGSGGGGSGGGGS, VL. Only the CDRs of the heavy chain vary.
VH: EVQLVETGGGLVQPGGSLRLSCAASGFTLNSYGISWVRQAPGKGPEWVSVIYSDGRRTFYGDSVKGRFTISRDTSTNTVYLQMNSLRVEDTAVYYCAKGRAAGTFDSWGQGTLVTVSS
VL: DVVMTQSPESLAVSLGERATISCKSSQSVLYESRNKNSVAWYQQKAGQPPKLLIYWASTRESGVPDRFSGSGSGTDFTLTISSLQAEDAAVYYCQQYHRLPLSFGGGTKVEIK

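In library AAYL49, one, two or three CDR residues were substituted; doubles and triples were drawn at random. AlphaSeq pools MATa yeast showing the antibodies with MATalpha yeast showing the peptide. Mating (16 h, 30 °C) was followed by selection of diploids and sequencing of their barcodes. The ratio of observed to expected reads was calibrated, replicate by replicate, on BCL2-family standards whose Kd was known from biolayer interferometry. The assay was run in three technical replicates.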

Positions count from residue 1 of the parent VH; F27M puts M in place of F. Scale: log10 of Kd in nM, estimated from mating counts; low values are strong binders. Averages over replicates are reported, and they cover detected replicates only. Where no diploid with the target was found in that replicate, the entry reads "nd": below detection, most likely a poor binder, though not proof of it. Order: sorted from the lowest average up, undetected variants last. Background: pairings of library AAYL49 with three empty control strains gave a value in 15% of cases (median 4.06, 5th percentile 2.83). Values in that range, when seen in few replicates, are hard to tell from nonspecific mating.

changes | log10 Kd, replicates | log10 Kd (nM), mean
F27M/N30K/R100M | 1.30 1.78 1.95 | 1.68
G103S/S107Q | 2.52 2.03 2.31 | 2.29
F27Y/A102G/G103Y | 3.13 2.48 3.06 | 2.89
L29H/A102F | nd 2.87 3.88 | 3.37
L29R/Y32T/V64A | nd nd 3.79 | 3.79
G55I/R57Y/G61M | nd 3.90 nd | 3.90
Y32C/I34C/V50P | nd nd 4.02 | 4.02
S53M/S63G/R100V | nd nd 4.06 | 4.06
A102Y/S107D | nd 4.21 nd | 4.21
N30D/S31F/R57G | 4.24 nd nd | 4.24
G26I/S35Q/I51V | 4.18 4.36 nd | 4.27
V50P/T58L/F105P | nd 4.43 nd | 4.43
Y52Q/D54P/F59D | nd 4.52 nd | 4.52
S31A/Y52L/R57M | nd 5.31 3.94 | 4.63
T28V/Y32K/R56G | nd nd 5.21 | 5.21
S31V/Y52C/T58W | 5.75 5.35 4.65 | 5.25
L29D/I34C/K65T | nd nd 5.66 | 5.66
I34V/G55I/T58W | nd nd nd | nd
I51S/R56W/S107W | nd nd nd | nd
S31D/S35F/G61R | nd nd nd | nd
F27S/N30I/T58G | nd nd nd | nd
D54N/F105Y | nd nd nd | nd
G26V/I51D/Y60T | nd nd nd | nd
L29A/N30W/D54M | nd nd nd | nd
G26M/G99C/R100C | nd nd nd | nd
L29P/S53E/S107P | nd nd nd | nd
S31F/S35F/R100Q | nd nd nd | nd
T28E/F105E/S107I | nd nd nd | nd
G26R/L29Y/G55S | nd nd nd | nd
S53H/R57E/S107H | nd nd nd | nd
G55Q/D62Y/K65H | nd nd nd | nd
G55W/G103H | nd nd nd | nd

Excerpt, the first 4 entries:

changes | log10 Kd, replicates | log10 Kd (nM), mean
F27M/N30K/R100M | 1.30 1.78 1.95 | 1.68
G103S/S107Q | 2.52 2.03 2.31 | 2.29
F27Y/A102G/G103Y | 3.13 2.48 3.06 | 2.89
L29H/A102F | nd 2.87 3.88 | 3.37

Source: Engelhart et al. 2022 (doi:10.1038/s41597-022-01779-4), MIT Lincoln Laboratory and A-Alpha Bio; data file from the FLAb repository.